Source: publication PMC10009755, “Discovery and Characterization of BAY-805, a Potent and Selective Inhibitor of Ubiquitin-Specific Protease USP21” (Journal of Medicinal Chemistry, 2023)

Sequences of proteins named here, by UniProt entry; tags and fusion partners are left off. A change or cut given only in a name is not applied to a line headed by its entry. Residues count along the entry.
UniProt Q9H2K8: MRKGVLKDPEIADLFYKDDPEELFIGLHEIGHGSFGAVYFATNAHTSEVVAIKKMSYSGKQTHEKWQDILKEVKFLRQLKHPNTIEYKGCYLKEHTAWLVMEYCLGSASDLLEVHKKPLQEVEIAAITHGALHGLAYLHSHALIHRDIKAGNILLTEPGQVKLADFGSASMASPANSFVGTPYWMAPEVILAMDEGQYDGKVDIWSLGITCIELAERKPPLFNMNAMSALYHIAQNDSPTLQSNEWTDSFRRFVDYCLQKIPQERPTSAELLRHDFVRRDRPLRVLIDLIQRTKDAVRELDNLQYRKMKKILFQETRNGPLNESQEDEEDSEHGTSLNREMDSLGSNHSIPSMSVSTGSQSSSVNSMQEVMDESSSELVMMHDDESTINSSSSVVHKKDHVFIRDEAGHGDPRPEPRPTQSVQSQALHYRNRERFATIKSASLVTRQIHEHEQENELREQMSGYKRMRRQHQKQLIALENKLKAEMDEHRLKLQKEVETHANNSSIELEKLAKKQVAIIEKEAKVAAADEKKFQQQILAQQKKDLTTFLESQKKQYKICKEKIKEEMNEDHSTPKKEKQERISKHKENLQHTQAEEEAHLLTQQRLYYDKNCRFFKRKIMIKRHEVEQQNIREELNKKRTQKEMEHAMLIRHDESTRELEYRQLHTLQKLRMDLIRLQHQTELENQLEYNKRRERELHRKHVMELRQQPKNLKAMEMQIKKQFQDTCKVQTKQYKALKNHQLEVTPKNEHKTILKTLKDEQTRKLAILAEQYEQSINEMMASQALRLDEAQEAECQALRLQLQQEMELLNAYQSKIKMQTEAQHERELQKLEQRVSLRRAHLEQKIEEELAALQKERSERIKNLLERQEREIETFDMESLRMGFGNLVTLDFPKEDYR
UniProt Q8N4C8: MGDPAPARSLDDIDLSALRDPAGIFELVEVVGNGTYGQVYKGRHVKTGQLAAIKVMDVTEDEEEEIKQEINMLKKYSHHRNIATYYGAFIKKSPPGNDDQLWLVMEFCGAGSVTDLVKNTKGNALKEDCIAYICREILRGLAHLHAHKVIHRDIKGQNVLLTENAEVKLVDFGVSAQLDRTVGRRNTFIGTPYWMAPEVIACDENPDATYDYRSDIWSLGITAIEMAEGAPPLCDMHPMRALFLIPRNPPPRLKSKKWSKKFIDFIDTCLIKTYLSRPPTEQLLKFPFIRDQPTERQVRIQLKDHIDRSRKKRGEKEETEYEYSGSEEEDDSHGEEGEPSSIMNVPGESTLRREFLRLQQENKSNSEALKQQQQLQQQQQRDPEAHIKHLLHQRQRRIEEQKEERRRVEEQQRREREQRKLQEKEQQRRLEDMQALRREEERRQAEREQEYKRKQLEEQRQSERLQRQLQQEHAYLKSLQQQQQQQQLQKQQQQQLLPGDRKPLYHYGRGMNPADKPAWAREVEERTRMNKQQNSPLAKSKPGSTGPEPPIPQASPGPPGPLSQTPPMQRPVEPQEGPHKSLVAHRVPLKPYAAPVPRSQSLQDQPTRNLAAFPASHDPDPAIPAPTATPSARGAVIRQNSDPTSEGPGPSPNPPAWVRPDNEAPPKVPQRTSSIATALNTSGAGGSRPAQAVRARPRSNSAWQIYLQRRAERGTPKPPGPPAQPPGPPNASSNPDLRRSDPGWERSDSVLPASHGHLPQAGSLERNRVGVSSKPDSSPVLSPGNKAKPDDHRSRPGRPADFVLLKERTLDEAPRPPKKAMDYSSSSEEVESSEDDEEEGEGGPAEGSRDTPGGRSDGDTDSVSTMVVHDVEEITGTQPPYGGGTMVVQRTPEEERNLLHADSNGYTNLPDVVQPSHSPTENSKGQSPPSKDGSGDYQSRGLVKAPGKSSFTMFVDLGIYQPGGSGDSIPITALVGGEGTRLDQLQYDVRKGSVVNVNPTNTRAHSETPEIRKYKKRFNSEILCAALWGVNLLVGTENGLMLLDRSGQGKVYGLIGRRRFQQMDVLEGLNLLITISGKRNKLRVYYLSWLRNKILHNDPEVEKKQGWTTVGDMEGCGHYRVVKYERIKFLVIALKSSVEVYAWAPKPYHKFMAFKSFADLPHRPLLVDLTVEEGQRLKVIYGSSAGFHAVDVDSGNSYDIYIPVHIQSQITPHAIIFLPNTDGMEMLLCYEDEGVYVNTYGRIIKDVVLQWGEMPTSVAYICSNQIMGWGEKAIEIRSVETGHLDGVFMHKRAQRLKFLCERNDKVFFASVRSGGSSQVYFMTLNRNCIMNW
UniProt P45974, 1-835 isoform P45974-2: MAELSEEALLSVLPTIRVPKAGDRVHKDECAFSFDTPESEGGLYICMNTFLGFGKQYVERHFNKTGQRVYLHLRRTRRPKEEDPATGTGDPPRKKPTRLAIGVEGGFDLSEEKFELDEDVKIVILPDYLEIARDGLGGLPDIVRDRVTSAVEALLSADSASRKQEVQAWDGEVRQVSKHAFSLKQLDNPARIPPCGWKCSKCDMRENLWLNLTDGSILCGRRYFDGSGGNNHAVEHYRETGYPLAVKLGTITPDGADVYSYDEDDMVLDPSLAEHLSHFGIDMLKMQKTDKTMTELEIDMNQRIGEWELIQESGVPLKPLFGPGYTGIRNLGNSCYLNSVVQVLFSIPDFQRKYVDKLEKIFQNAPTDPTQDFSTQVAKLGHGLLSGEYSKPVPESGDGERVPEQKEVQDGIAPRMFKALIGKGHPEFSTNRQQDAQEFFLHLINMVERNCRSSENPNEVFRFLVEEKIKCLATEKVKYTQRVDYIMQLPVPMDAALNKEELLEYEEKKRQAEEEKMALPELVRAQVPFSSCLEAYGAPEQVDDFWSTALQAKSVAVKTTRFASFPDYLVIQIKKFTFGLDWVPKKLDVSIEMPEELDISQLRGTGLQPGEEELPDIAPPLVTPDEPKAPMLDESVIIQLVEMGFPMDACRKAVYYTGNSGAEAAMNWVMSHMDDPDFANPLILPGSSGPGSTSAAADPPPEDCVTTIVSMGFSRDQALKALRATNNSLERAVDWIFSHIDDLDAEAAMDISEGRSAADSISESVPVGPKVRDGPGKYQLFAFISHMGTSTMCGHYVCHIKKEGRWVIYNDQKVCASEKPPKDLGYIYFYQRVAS
UniProt Q13177, whole entry: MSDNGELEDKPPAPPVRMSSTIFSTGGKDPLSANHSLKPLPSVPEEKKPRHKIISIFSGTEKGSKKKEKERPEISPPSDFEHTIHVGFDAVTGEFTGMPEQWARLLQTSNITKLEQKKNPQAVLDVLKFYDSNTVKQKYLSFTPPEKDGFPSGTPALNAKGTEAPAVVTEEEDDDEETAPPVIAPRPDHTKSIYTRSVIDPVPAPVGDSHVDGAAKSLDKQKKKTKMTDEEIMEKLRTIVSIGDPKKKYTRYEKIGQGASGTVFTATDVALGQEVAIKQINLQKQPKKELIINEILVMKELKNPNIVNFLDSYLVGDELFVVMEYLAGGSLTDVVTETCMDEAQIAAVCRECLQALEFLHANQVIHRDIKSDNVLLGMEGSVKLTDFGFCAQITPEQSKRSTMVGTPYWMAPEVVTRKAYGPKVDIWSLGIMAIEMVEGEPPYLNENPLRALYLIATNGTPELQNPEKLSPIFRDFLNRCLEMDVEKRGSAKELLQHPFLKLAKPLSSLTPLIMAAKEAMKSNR
UniProt Q8TDC3: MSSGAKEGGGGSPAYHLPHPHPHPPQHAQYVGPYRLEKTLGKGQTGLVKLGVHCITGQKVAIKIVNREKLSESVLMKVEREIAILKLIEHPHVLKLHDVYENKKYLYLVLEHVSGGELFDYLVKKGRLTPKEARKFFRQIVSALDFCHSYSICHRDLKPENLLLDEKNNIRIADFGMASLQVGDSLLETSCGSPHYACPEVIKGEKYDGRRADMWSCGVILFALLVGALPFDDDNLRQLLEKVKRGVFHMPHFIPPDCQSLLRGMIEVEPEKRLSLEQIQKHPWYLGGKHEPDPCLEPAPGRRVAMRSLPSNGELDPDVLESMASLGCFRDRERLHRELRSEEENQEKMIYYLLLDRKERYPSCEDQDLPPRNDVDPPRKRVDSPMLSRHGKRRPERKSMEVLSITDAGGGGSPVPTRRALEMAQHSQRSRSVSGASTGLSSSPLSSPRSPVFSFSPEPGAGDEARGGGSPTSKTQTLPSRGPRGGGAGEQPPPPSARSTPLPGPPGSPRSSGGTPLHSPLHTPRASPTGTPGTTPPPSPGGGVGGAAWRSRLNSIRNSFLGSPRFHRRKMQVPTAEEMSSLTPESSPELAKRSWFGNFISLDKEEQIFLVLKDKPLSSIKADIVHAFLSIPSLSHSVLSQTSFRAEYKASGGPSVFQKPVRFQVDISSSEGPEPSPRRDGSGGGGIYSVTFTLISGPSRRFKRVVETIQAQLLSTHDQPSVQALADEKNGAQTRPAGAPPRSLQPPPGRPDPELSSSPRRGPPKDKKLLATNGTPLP
UniProt Q9Y6E0: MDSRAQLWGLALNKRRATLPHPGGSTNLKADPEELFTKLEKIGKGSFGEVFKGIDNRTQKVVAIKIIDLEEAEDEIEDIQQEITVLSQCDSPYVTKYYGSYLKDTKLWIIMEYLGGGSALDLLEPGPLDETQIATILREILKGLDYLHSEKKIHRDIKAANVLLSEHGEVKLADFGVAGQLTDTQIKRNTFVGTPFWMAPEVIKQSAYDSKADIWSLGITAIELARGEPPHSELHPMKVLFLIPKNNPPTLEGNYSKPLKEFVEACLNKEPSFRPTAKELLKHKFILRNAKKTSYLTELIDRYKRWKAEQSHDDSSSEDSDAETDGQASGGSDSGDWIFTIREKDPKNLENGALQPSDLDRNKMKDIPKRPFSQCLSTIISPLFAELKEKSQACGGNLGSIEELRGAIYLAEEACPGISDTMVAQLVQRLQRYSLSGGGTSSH
UniProt O96013: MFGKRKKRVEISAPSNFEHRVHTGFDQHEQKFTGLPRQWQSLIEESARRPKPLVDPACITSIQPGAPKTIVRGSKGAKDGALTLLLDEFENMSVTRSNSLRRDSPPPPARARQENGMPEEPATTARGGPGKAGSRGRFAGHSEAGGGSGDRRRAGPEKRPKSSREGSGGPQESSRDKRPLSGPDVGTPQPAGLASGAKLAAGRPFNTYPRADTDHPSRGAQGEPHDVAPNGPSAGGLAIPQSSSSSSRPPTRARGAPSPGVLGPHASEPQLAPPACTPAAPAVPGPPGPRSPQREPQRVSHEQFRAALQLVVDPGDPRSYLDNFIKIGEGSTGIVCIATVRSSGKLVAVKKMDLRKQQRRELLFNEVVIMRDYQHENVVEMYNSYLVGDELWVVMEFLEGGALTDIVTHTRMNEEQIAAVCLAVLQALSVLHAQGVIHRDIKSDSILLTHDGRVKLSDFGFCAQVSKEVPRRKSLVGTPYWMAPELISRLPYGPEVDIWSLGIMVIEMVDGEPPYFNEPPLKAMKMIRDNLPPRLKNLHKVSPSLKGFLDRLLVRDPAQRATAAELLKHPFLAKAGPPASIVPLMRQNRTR
UniProt P24723, whole entry: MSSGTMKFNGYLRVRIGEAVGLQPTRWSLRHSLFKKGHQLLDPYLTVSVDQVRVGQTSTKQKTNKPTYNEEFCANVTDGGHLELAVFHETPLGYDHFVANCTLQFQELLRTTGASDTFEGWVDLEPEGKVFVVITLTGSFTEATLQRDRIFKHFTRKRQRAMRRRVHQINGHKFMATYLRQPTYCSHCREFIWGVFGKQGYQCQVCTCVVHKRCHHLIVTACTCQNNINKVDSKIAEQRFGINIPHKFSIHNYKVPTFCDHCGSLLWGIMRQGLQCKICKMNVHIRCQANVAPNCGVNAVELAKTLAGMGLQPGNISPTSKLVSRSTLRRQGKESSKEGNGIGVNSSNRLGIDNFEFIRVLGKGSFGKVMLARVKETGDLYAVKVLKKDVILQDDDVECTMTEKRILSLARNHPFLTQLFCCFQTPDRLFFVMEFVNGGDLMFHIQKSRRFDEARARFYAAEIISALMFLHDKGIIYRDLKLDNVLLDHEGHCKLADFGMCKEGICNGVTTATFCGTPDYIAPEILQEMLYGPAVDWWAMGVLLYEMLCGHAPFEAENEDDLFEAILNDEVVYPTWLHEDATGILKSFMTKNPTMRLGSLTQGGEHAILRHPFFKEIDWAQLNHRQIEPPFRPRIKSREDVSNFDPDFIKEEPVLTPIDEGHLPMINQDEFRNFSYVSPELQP
UniProt P37288, whole entry: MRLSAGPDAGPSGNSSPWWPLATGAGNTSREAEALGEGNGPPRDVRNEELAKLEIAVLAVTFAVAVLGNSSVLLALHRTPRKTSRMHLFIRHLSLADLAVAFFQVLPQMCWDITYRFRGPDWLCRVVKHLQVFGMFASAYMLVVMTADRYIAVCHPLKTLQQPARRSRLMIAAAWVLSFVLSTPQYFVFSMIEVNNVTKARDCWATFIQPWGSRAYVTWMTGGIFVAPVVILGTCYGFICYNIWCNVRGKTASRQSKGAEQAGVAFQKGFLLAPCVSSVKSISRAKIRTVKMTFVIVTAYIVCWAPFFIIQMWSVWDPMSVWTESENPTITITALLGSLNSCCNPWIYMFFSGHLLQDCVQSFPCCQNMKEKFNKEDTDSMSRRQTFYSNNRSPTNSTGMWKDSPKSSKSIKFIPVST

Experiments:
Flt4(h) = Flt4(h) (Homo sapiens, UniProt P35916); assay: biochemical
CDK16/cyclinY(h) = CDK16/cyclinY(h) (Homo sapiens, UniProt Q00536); assay: biochemical
Ron(h) = Ron(h) (Homo sapiens, UniProt Q04912); assay: biochemical
CDK17/cyclinY(h) = CDK17/cyclinY(h) (Homo sapiens, UniProt Q00537); assay: biochemical
Plk3(h) = Plk3(h) (Homo sapiens, UniProt Q9H4B4); assay: biochemical
CaMKIgamma(h) = CaMKIgamma(h) (Homo sapiens, UniProt Q96NX5); assay: biochemical
CDK2/cyclinE(h) = CDK2/cyclinE(h) (Homo sapiens, UniProt P24941); assay: biochemical
TAO3(h) = TAO3(h) (Homo sapiens, UniProt Q9H2K8); assay: biochemical
IGF-1R(h), activated = IGF-1R(h), activated (Homo sapiens, UniProt P08069); assay: biochemical
PRKG2(h) = PRKG2(h) (Homo sapiens, UniProt Q13237); assay: biochemical
MINK(h) = MINK(h) (Homo sapiens, UniProt Q8N4C8); assay: biochemical
BRK(h) = BRK(h) (Homo sapiens, UniProt Q13882); assay: biochemical
USP5 = USP5 (Homo sapiens, UniProt P45974); assay: biochemical; details: read-out: Activity (% Control)
Carbonic Anhydrase II = Carbonic Anhydrase II (Homo sapiens, UniProt P00918); assay: biochemical; details: read-out: % Inh.
Molm-13 = assay: cells; details: Homo sapiens, MOLM-13, 72 h, read-out: antiproliferative effect
TrkC(h) = TrkC(h) (Homo sapiens, UniProt Q16288); assay: biochemical
DRAK1(h) = DRAK1(h) (Homo sapiens, UniProt Q9UEE5); assay: biochemical
UCHL5 = UCHL5 (Homo sapiens, UniProt Q9Y5K5); assay: biochemical; details: read-out: Activity (% Control)
Jurkat = assay: cells; details: Homo sapiens, 72 h, read-out: antiproliferative effect
HPK1(h) = HPK1(h) (Homo sapiens, UniProt Q92918); assay: biochemical
GSK3alpha(h) = GSK3alpha(h) (Homo sapiens, UniProt P49840); assay: biochemical
WNK4(h) = WNK4(h) (Homo sapiens, UniProt Q96J92); assay: biochemical
Lipoxygenase 15-LO = details: 10 µM
PAK2(h) = PAK2(h) (Homo sapiens, UniProt Q13177); assay: biochemical
CaMKIIgamma(h) = CaMKIIgamma(h) (Homo sapiens, UniProt Q13555); assay: biochemical
Lyn(h) = Lyn(h) (Homo sapiens, UniProt P07948); assay: biochemical
BrSK1(h) = BrSK1(h) (Homo sapiens, UniProt Q8TDC3); assay: biochemical
USP5 (+Ubiquitin @ Kd) = USP5 (+Ubiquitin @ Kd) (Homo sapiens, UniProt P45974); assay: biochemical; details: read-out: Activity (% Control)
MST3(h) = MST3(h) (Homo sapiens, UniProt Q9Y6E0); assay: biochemical
[1] = biological target: Transporter, Dopamine (DAT) (Homo sapiens, UniProt Q01959); assay: biochemical; details: read-out: % Inh.
JOSD1 = JOSD1 (Homo sapiens, UniProt Q15040); assay: biochemical; details: read-out: Activity (% Control)
Aurora-C(h) = Aurora-C(h) (Homo sapiens, UniProt Q9UQB9); assay: biochemical
PAK4(h) = PAK4(h) (Homo sapiens, UniProt O96013); assay: biochemical
Fgr(h) = Fgr(h) (Homo sapiens, UniProt P09769); assay: biochemical
CHK2(h) = CHK2(h) (Homo sapiens, UniProt O96017); assay: biochemical
Ataxin3L = Ataxin3L (Homo sapiens, UniProt Q9H3M9); assay: biochemical; details: read-out: Activity (% Control)
PKCeta(h) = PKCeta(h) (Homo sapiens, UniProt P24723); assay: biochemical
Vasopressin V1A = Vasopressin V1A (Homo sapiens, UniProt P37288); assay: biochemical; details: read-out: % Inh.
SLK(h) = SLK(h) (Homo sapiens, UniProt Q9H2G2); assay: biochemical
MLK1(h) = MLK1(h) (Homo sapiens, UniProt P80192); assay: biochemical
A549 = assay: cells; details: Homo sapiens, A549, 72 h, read-out: antiproliferative effect

## CC(C)C[C@@H](NC(=O)C1(C(F)(F)F)CCCCC1)C(=O)Nc1nnc(Cc2ccc(C#N)cc2)s1 [Compound 21, N-[(1R)-1-[[5-[(4-Cyanophenyl)methyl]-1,3,4-thiadiazol-2-yl]carbamoyl]-3-methyl-butyl]-1-(trifluoromethyl)cyclohexanecarboxamide]
Flt4(h)
  inhibition at 10 µM: -10.5%
CDK16/cyclinY(h)
  inhibition at 10 µM: 2.36%
Ron(h)
  inhibition at 10 µM: 2.31%
CDK17/cyclinY(h)
  inhibition at 10 µM: 9.31%
Plk3(h)
  inhibition at 10 µM: -8.23%
CaMKIgamma(h)
  inhibition at 10 µM: 10.5%
CDK2/cyclinE(h)
  inhibition at 10 µM: -7.88%
TAO3(h)
  inhibition at 10 µM: 7.12%
IGF-1R(h), activated
  inhibition at 10 µM: -2.37%
PRKG2(h)
  inhibition at 10 µM: -1.61%
MINK(h)
  inhibition at 10 µM: 1.61%
BRK(h)
  inhibition at 10 µM: 4.3%
USP5
  remaining activity at 10 µM: 97%
  remaining activity at 50 µM: 80%
Carbonic Anhydrase II
  inhibition at 10 µM: 3%
Molm-13
  IC50: > 30 µM
TrkC(h)
  inhibition at 10 µM: 9.76%
DRAK1(h)
  inhibition at 10 µM: -23.4%
UCHL5
  remaining activity at 1 µM: 108%
  remaining activity at 10 µM: 98%
Jurkat
  IC50: > 30 µM
HPK1(h)
  inhibition at 10 µM: 11%
GSK3alpha(h)
  inhibition at 10 µM: 11%
WNK4(h)
  inhibition at 10 µM: 9.12%
Lipoxygenase 15-LO
  % Inh.: -3%
PAK2(h)
  inhibition at 10 µM: 2.68%
CaMKIIgamma(h)
  inhibition at 10 µM: 5.77%
Lyn(h)
  inhibition at 10 µM: -1.62%
BrSK1(h)
  inhibition at 10 µM: -2.96%
USP5 (+Ubiquitin @ Kd)
  remaining activity at 1 µM: 105%
  remaining activity at 10 µM: 110%
MST3(h)
  inhibition at 10 µM: 5.19%
[1]
  inhibition at 10 µM: 9%
JOSD1
  remaining activity at 1 µM: 108%
  remaining activity at 10 µM: 101%
Aurora-C(h)
  inhibition at 10 µM: -2.87%
PAK4(h)
  inhibition at 10 µM: -8.93%
Fgr(h)
  inhibition at 10 µM: -3.78%
CHK2(h)
  inhibition at 10 µM: 4.79%
Ataxin3L
  remaining activity at 1 µM: 109%
  remaining activity at 10 µM: 111%
PKCeta(h)
  inhibition at 10 µM: 19.4%
Vasopressin V1A
  inhibition at 10 µM: 2%
SLK(h)
  inhibition at 10 µM: 6.3%
MLK1(h)
  inhibition at 10 µM: 1.96%
A549
  IC50: > 30 µM

## CC(C)C[C@H](NC(=O)C1(C(F)(F)F)CCCCC1)C(=O)Nc1nnc(Cc2ccc(C#N)cc2)s1 [Compound 22, CC(C)C[C@H](NC(=O)C1(CCCCC1)C(F)(F)F)C(=O)Nc2nnc(Cc3ccc(cc3)C#N)s2]
Flt4(h)
  inhibition at 10 µM: -8.37%
CDK16/cyclinY(h)
  inhibition at 10 µM: 20.8%
Ron(h)
  inhibition at 10 µM: -5.2%
CDK17/cyclinY(h)
  inhibition at 10 µM: 6.25%
Plk3(h)
  inhibition at 10 µM: -17.4%
CaMKIgamma(h)
  inhibition at 10 µM: 10.9%
CDK2/cyclinE(h)
  inhibition at 10 µM: -6.08%
TAO3(h)
  inhibition at 10 µM: 3.93%
IGF-1R(h), activated
  inhibition at 10 µM: 3.24%
PRKG2(h)
  inhibition at 10 µM: 3.67%
MINK(h)
  inhibition at 10 µM: -12.3%
BRK(h)
  inhibition at 10 µM: 7.88%
USP5
  remaining activity at 10 µM: 94%
  remaining activity at 50 µM: 78%
Carbonic Anhydrase II
  inhibition at 10 µM: 1%
Molm-13
  IC50: > 30 µM
TrkC(h)
  inhibition at 10 µM: 4.31%
DRAK1(h)
  inhibition at 10 µM: -21.9%
UCHL5
  remaining activity at 1 µM: 100%
  remaining activity at 10 µM: 147%
Jurkat
  IC50: > 30 µM
HPK1(h)
  inhibition at 10 µM: 0.4%
GSK3alpha(h)
  inhibition at 10 µM: -3.55%
WNK4(h)
  inhibition at 10 µM: 9.62%
Lipoxygenase 15-LO
  % Inh.: -3%
PAK2(h)
  inhibition at 10 µM: 0.75%
CaMKIIgamma(h)
  inhibition at 10 µM: 2.22%
Lyn(h)
  inhibition at 10 µM: 3.48%
BrSK1(h)
  inhibition at 10 µM: 0.09%
USP5 (+Ubiquitin @ Kd)
  remaining activity at 1 µM: 108%
  remaining activity at 10 µM: 90%
MST3(h)
  inhibition at 10 µM: 4.23%
[1]
  inhibition at 10 µM: 41%
JOSD1
  remaining activity at 1 µM: 100%
  remaining activity at 10 µM: 99%
Aurora-C(h)
  inhibition at 10 µM: -2.91%
PAK4(h)
  inhibition at 10 µM: 0.07%
Fgr(h)
  inhibition at 10 µM: 10.9%
CHK2(h)
  inhibition at 10 µM: -1.61%
Ataxin3L
  remaining activity at 1 µM: 91%
  remaining activity at 10 µM: 106%
PKCeta(h)
  inhibition at 10 µM: 23.7%
Vasopressin V1A
  inhibition at 10 µM: 5%
SLK(h)
  inhibition at 10 µM: 1.74%
MLK1(h)
  inhibition at 10 µM: -1.43%
A549
  IC50: > 30 µM
